The record followed here is patent publication US8962630B2, “Pyrrolopyrimidine compounds and their uses” (Novartis AG, priority 2008, dated 2015).

Protein sequences, listed by entry. Tags and fused reporters are not part of them.
UniProt P06493, whole entry, species assumed: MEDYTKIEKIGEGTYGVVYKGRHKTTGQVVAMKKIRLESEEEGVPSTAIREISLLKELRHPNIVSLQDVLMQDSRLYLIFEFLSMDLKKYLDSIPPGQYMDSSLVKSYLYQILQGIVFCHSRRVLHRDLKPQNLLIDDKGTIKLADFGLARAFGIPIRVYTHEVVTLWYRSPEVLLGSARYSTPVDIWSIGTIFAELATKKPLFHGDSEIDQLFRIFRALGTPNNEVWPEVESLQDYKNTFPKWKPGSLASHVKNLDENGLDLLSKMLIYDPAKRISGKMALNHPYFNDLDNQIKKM

The target of one assay is CDK1/cyclin B (Homo sapiens (Human), UniProt P06493). Description: CDK1/Cyclin B enzymatic activity assay (IMAP-FP). Format: biochemical. Conditions: Table 2; 20 μM ATP. The source says: A 384-well microtiter IMAP-FPT™ (Molecular Devices Trade Mark Technology) endpoint assay was used for CDK1/cyclin B kinase activity measurements. The same assay was used for IC50 determination of small molecule inhibitors.

The target in the next assay is CDK2/cyclin A (Homo sapiens (Human), UniProt P24941). Description: CDK2/Cyclin A enzymatic activity assay (IMAP-FP). The assay is classed as biochemical. The note with it: Table 2.

Where only a bound is given, the exact number is not on record here.

With `CN(C)C(=O)c1cc2cnc(Nc3ccc(CN4CC5CCC(C4)N5)cn3)nc2n1C1CCCC1` [Example 73, 7-Cyclopentyl-2-[5-(3,8-diaza-bicyclo[3.2.1]oct-3-ylmethyl)-pyridin-2-ylamino]-7H-pyrrolo[2,3-d]pyrimidine-6-carboxylic acid dimethylamide], the IC50 against CDK1/cyclin B and against CDK2/cyclin A was > 15 µM each time.
